## Binding of CDR-mutated scFvs to a peptide of the spike HR2 region

From the AlphaSeq antibody data of Engelhart et al. 2022 (doi:10.1038/s41597-022-01779-4), copy in the FLAb collection.

The target is the same throughout: PDVDLGDISGINAS, from the HR2 region of SARS-CoV-2 spike.

Parent scFv Ab-95: VH joined to VL by the linker GGGGSGGGGSGGGGS. Changes lie in the light chain CDRs alone.
VH: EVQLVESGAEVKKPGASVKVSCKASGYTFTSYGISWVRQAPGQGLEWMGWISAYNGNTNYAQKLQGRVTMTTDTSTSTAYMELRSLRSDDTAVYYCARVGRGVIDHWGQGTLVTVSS
VL: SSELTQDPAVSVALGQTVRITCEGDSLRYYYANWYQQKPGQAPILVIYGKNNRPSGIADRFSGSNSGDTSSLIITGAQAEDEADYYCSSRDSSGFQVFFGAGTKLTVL

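Phage display of a naive human antibody library on the peptide gave the parent. In library AAYL52, one, two or three CDR residues were substituted; doubles and triples were drawn at random. In AlphaSeq, yeast of one mating type display the scFv and yeast of the other type display the target. Mating (16 h, 30 °C) was followed by selection of diploids and sequencing of their barcodes. Each replicate has its own calibration line, from reference interactions of the BCL2 family. There are three technical replicates.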

Variants are written as CDR1, CDR2 and CDR3 of the light chain (limits as in the source). Parent: EGDSLRYYYAN, GKNNRPS, SSRDSSGFQVF.
Scale: log10 of Kd in nM, estimated from mating counts; low values are strong binders.
An entry "n.d." has no value in the source: the pair was not observed among the diploids in that replicate. This suggests poor binding but is not conclusive.
Nonspecific signal, from three strains lacking the peptide, appeared in 28% of pairings of library AAYL52, centred on 3.91 (5% of these signals below 2.90); values are not corrected for it.

CDR-L1 | CDR-L2 | CDR-L3 | log10 Kd, replicates
SGDSTRYYYAN | GKNNRPS | SSRDSDGFQVF | 3.62 / 3.12 / 2.90
EGDSLRYYYAS | GKNRRPS | SSRDSHGFQVF | 4.74 / 4.97 / 3.93
EGDSLYYYYAP | GKNNRPS | SSRDSSGFQKF | 4.01 / n.d. / 3.99
EGDSLRYYYAN | GNAIRPS | SSRDSSGFQVF | 2.30 / 2.06 / 1.62
EGDSLRYYYAN | GKLNFPS | SSRDSNGFQVF | n.d. / n.d. / n.d.
EQDSLRYYYAN | GKNNRVS | SSRDSSKFQVF | 3.40 / n.d. / n.d.
EGDSLRYYKAI | GKNNRPS | SSRDSSGFQVF | n.d. / 5.28 / 3.61
EGDSLRYYYAN | GKNPRPS | SSRDSGRFQVF | 3.80 / 5.35 / n.d.
EGDILRYYYAN | GKNNRPE | NSRDSSGFQVF | 3.56 / 3.85 / n.d.
EGDSRRYMLAN | GKNNRPS | SSRDSSGFQVF | 2.89 / 2.54 / 2.42
EGTSLRYYYAN | GKNPIPS | SSRDSSGFQVF | 3.20 / 5.04 / 4.33
EGDSLRYYYAN | GKNNRPS | SSRHSVGFQVF | 2.49 / 3.29 / 3.58
ESDSLRYYYAN | DKNNRPS | SSRDSSGFHVF | 3.04 / 3.34 / 2.91
EGDSFRYYYAV | GKNNRPS | SSRDSSMFQVF | 3.26 / 3.49 / n.d.
ERDALRYYYAN | GKNNRPS | SSRDSSGFQVM | 3.43 / 3.41 / 2.67
EGDYLRYYYAN | GKNNRPS | SSRDSSNFQVN | 3.16 / 3.35 / 3.65
EGDSKRYEYAN | GKNNRPS | SSRDSSGFQVI | 2.19 / 2.61 / 1.61
EGDSLRYYYAN | GKNNRPS | SSRYSSGFQPT | 2.26 / 2.37 / 3.32
EGDSLRYYYKN | GKSNRPS | SSRDSSGFQVV | n.d. / n.d. / 3.13
EGDSLRYYYAI | NKNLRPS | SSRDSSGFQVF | 3.93 / n.d. / n.d.
EGDILRYYYAN | GKNNRPS | SSRRSSGFQIF | n.d. / 3.25 / n.d.
EGISLRYYYAN | GKNNRPS | SSRDPSCFQVF | 3.44 / 5.64 / 2.27
EGDFLPYYYAN | GKNNRPS | SSRASSGFQVF | 5.45 / 4.11 / n.d.
EGDSFRVYYAN | GKNMRPS | SSRDSSGFQVF | n.d. / 3.37 / 3.93
EGDSLRYYHAN | GYNNRPS | SSRDCSGFQVF | 3.46 / 3.14 / 3.59
EGDSLRYYYNN | GKNNRVE | SSRDSSGFQVF | 3.80 / n.d. / 3.95
NSDSLRYYYAN | GKNNRPS | HSRDSSGFQVF | 4.45 / 3.13 / n.d.
CGDSLRYYYAN | LKNNRPS | SSRDSSGNQVF | 4.00 / n.d. / n.d.
TGDSLRYYYAN | GKNNRPF | SSRDSSGFQVF | 1.94 / 2.27 / 2.09
EGDSLRYYYAN | FKNIRPS | SSRDSDGFQVF | 3.01 / n.d. / 3.76
EGDSGRYYYAN | GKNNRPS | SVRQSSGFQVF | n.d. / n.d. / 3.81
HGDSLRYYYAN | IKKNRPS | SSRDSSGFQVF | n.d. / 4.68 / n.d.
EGVSGRYYYVN | GKNNRPS | SSRDSSGFQVF | 2.33 / 2.15 / 2.08
EGDSLRYYYAG | GKNNRYS | SSRDSSGSQVF | 4.23 / n.d. / n.d.
RGDSLRYYYAN | GKNNRPS | SSRDSSMFQVC | n.d. / n.d. / n.d.
EGDSLRYYYAN | WKKNRPS | SSRDSSGFQVF | n.d. / n.d. / n.d.
HGDSLRYWYAN | GKNNLPS | SSRDSSGFQVF | 3.43 / 3.76 / n.d.
YGDSLRYYDAN | GKNNRPS | LSRDSSGFQVF | 1.70 / 1.56 / 1.42
EGDSLRYYKAN | GKNNRAS | SSRDSSGFQQF | 2.82 / 2.67 / 2.75
EGDSLRDYYAN | GKNMRVS | SSRDSSGFQVF | 2.04 / 2.67 / 2.92
EGDSLRYYYAN | GKNWWPS | CSRDSSGFQVF | n.d. / 4.68 / 3.65
EGDSLPYYYAN | KNNNRPS | SSRDSSGFQVF | 3.23 / 2.42 / 2.92
EGFSLRYYYAN | GKNNRPS | EGRDSSGFQVF | n.d. / 4.66 / n.d.

Top 6 of the variants detected in all replicates, tightest first:

CDR-L1	CDR-L2	CDR-L3	log10 Kd, replicates
YGDSLRYYDAN	GKNNRPS	LSRDSSGFQVF	1.70 / 1.56 / 1.42
EGDSLRYYYAN	GNAIRPS	SSRDSSGFQVF	2.30 / 2.06 / 1.62
TGDSLRYYYAN	GKNNRPF	SSRDSSGFQVF	1.94 / 2.27 / 2.09
EGDSKRYEYAN	GKNNRPS	SSRDSSGFQVI	2.19 / 2.61 / 1.61
EGVSGRYYYVN	GKNNRPS	SSRDSSGFQVF	2.33 / 2.15 / 2.08
EGDSLRDYYAN	GKNMRVS	SSRDSSGFQVF	2.04 / 2.67 / 2.92

Parent in this assay: reference entry 2.31, copy in this library 2.25.